In ChEMBL document CHEMBL1687837, “Roles of residues Cys69, Asn104, Phe160, Gly232, Ser237, and Asp240 in extended-spectrum beta-lactamase Toho-1” (2011):

Experiments:
[1] = substrate: CC1(C)S[C@@H]2[C@H](NC(=O)[C@H](N)c3ccccc3)C(=O)N2[C@H]1C(=O)O; test: (§1) Ratio of Kcat to Km for Escherichia coli wild type beta-lactamase Toho-1 assessed as compound hydrolysis by spectrophotometry
[2] = substrate: CC1(C)S[C@@H]2[C@H](NC(=O)Cc3ccccc3)C(=O)N2[C@H]1C(=O)O; test: as §1
[3] = substrate: CC1(C)S[C@@H]2[C@H](NC(=O)Cc3ccccc3)C(=O)N2[C@H]1C(=O)O; test: Activity of Escherichia coli wild type beta-lactamase Toho-1 assessed as compound hydrolysis by spectrophotometry

B1: Beta-lactamase Toho-1 (Escherichia coli), Q47066 (protein)
chain: MMTQSIRRSMLTVMATLPLLFSSATLHAQANSVQQQLEALEKSSGGRLGVALINTADNSQILYRADERFAMCSTSKVMAAAAVLKQSESDKHLLNQRVEIKKSDLVNYNPIAEKHVNGTMTLAELGAAALQYSDNTAMNKLIAHLGGPDKVTAFARSLGDETFRLDRTEPTLNTAIPGDPRDTTTPLAMAQTLKNLTLGKALAETQRAQLVTWLKGNTTGSASIRAGLPKSWVVGDKTGSGDYGTTNDIAVIWPENHAPLVLVTYFTQPEQKAERRRDILAAAAKIVTHGF
With B1 the kcat/Km [1] was 1.8 ×10⁶ /s/M, the kcat/Km [2] was 3.6 ×10⁶ /s/M and the Km [3] was 18 µM. For the same protein, the kcat [3] was 65 s⁻¹.
